Where two headings read alike, the source gives them in different places.
How the values were obtained:
recombinant human MMP-1 = recombinant human MMP-1 (Homo sapiens, UniProt P03956); settings: read-out: MMP-1 IC50, Inhibition Table B
recombinant human MMP-2 = recombinant human MMP-2 (Homo sapiens, UniProt P08253); settings: read-out: MMP-2 IC50, Inhibition Table B
recombinant human MMP-13 = recombinant human MMP-13 (Homo sapiens, UniProt P45452); experiment: In vitro metalloprotease inhibition, fluorogenic MCA peptide substrate, MMP-13; assay type: biochemical; settings: read-out: MMP-13 IC50, Inhibition Table B

Protein sequences, listed by entry. Tags and fused reporters are not part of them. Residues count along the entry.
UniProt P03956, 100-469 limits assumed: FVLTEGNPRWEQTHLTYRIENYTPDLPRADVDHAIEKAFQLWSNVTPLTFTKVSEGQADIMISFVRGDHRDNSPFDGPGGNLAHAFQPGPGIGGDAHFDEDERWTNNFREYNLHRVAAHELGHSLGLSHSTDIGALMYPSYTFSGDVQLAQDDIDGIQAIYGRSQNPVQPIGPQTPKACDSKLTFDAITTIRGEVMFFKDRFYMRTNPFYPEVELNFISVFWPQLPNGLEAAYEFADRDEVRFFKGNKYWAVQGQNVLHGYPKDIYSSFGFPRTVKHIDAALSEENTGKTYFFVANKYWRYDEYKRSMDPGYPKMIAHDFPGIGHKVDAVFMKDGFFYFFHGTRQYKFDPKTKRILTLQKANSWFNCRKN
UniProt P08253, 110-660 limits assumed: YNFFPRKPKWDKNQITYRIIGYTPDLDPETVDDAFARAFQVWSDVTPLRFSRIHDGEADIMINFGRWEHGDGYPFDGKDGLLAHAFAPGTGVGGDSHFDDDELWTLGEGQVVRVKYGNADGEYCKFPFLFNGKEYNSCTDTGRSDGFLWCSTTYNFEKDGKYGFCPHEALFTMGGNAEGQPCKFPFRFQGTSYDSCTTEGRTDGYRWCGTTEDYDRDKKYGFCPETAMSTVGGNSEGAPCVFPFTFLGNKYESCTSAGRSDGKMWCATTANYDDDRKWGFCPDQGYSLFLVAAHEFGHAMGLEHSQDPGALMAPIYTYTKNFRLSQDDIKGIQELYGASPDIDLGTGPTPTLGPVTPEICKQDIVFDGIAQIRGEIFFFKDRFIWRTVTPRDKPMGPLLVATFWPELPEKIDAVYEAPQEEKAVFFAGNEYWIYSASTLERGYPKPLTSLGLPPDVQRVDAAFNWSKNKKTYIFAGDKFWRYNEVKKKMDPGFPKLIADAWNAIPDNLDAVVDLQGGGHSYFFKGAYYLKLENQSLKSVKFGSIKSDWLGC

| Structure (SMILES) | IC50 (recombinant human MMP-1) | IC50 (recombinant human MMP-2) | IC50 (recombinant human MMP-13) | IC50 (recombinant human MMP-1; tested form: TFA) | IC50 (recombinant human MMP-2; tested form: TFA) | IC50 (recombinant human MMP-13; tested form: TFA) |
| --- | --- | --- | --- | --- | --- | --- |
| Cc1ccc(-c2ccc(S(=O)(=O)C3(C(=O)NO)CCOCC3)cc2)cc1 | 600 nM | < 1 nM | < 1 nM |  |  |  |
| COC(=O)[C@H](Cc1cnc[nH]1)NC(=O)C1CCCN(c2ccc(S(=O)(=O)C3(C(=O)NO)CCOCC3)cc2)C1 (stereo partly drawn) |  |  |  | > 10000 nM | > 100 nM | > 100 nM |
| O=C(NO)C1(S(=O)(=O)c2ccc(-c3ccc(F)cc3)cc2)CCOCC1 | 145 nM | < 1 nM | < 1 nM |  |  |  |
| O=C(N1CCOCC1)N1CCN(c2ccc(S(=O)(=O)C3(C(=O)NO)CCOCC3)cc2)CC1 |  |  |  | > 10000 nM | 30.6 nM | 28 nM |
| COC(=O)[C@H](Cc1cnc[nH]1)NC(=O)C1CCN(c2ccc(S(=O)(=O)C3(C(=O)NO)CCOCC3)cc2)CC1 |  |  |  | > 10000 nM | 445 nM | 40 nM |
